Molecules are shown by their SMILES.

The assay has as its system human tumour xenograft MDA-MB-231. The assay is described as follows: Human tumour xenograft MDA-MB-231 model, tumour volume and relative tumour volume. It is filed as in vivo, mice. Particulars: Group B, 2.5 mg/kg i.v. day 1, 5, 9; day 5. The procedure: The therapeutic effect of SACC is evaluated against triple-negative breast cancer cell line MDA-MB-231 by analysing tumour volume and relative tumour volume. The study involved the use of six mice. These mice were administrated treatment according to the following Groups: […]

As for `COc1cccc2c1C(=O)c1c(O)c3c(c(O)c1C2=O)C[C@@](O)(C(=O)CO)C[C@@H]3O[C@H]1C[C@H](N)[C@H](O)[C@H](C)O1` [ADR, Adriamycin], the “RTV (Relative Tumour Volume)” value is reported as 1.06.

(Values after US20260224524A1, “A PHARMACEUTICAL COMPOSITION TARGETING MUTANT P53 AND HER2” (DR DOZO LABORATORIES, priority 2023, published 2026).)
